Results: patent publication US8278453B2, “Quinolizidinone M1 receptor positive allosteric modulators” (Merck Sharp & Dohme Corp., priority 2008, dated 2012)

By UniProt entry, the sequences of proteins in these tests, tags left out.
UniProt P11229, whole entry: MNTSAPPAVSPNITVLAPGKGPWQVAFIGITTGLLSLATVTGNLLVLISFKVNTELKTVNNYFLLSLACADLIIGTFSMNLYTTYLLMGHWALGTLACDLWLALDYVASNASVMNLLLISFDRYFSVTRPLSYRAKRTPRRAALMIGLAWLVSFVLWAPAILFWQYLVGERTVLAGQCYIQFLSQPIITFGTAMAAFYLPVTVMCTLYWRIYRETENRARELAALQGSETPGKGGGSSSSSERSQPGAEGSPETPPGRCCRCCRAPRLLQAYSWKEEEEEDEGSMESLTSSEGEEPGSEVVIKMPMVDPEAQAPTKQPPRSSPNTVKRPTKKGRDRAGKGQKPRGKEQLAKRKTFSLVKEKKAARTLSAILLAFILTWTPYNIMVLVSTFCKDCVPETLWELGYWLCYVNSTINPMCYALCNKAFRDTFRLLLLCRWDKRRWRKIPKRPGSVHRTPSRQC

Target: acetylcholine muscarinic M1 receptor (Homo sapiens, UniProt P11229)
Test: muscarinic M1 FLIPR intracellular calcium assay (positive allosteric modulation, EC20 acetylcholine)
Details: read-out: IP Value; inflection point from FLIPR values; CHOnfat/hM1 cells; 4 min preincubation, then EC20 acetylcholine (3 nM final)
Description: The assay studies the effect of one or several concentrations of test compounds on basal or acetylcholine-stimulated Ca^2+ levels using FLIPR.
Compounds are prepared and subjected to a preincubation period of 4 min. Thereafter, a single EC20 concentration of acetylcholine is added to each well (3 nM final). The intracellular Ca^2+ level of each sample is measured and compared to an acetylcholine control to determine any modulatory activity.
Cells: CHOnfat/hM1, hM2, hM3 or hM4 cells are plated 24 hr before the assay at a density of 18,000 cells/well (100 μL) in a 384 well plate. CHOnfat/hM1 and CHOnfat/hM3 Growth Medium: 90% DMEM (Hi Glucose); 10% HI FBS; 2 mM L-glutamine; 0.1 mM NEAA; Pen-Strep; and 1 mg/ml Geneticin, are added. For M2Gqi5CHOnfat and M4Gqi5CHOnfat cells, an additional 600 μg/ml hygromycin is added.
Equipment: 384 well plate, 120 μL addition plate; 96-well Whatman 2 ml Uniplate Incubator, 37° C., 5% CO2; Skatron EMBLA-384 Plate Washer; Multimek Pipetting System; Genesis Freedom 200 System; Mosquito System; Temo Nanolitre Pipetting System; and FLIPR^384 Fluorometric Imaging Plate Reader System are used.
Buffers. Assay Buffer: Hanks Balanced Salt Solution, with 20 mM Hepes, 2.5 mM Probenecid (Sigma P-8761) first dissolved in 1N aqueous NaOH, 1% Bovine Serum Albumin (Sigma A-9647). Dye Loading Buffer: Assay Buffer plus 1% Fetal Bovine Serum and Fluo-4AM/Pluronic Acid Mixture. 2 mM Fluo-4AM ester stock in DMSO (Molecular Probes F-14202) Concentration of 2 μM in buffer for a final concentration of 1 μM in Assay. 20% Pluronic Acid Solution stock, with a concentration of 0.04% in Buffer, 0.02% in Assay.
65 μl of 2 mM Fluo-4AM are mixed with 130 μL of 20% Pluronic Acid. The resulting solution and 650 μL FBS is added to the assay buffer for a total volume of 65 mL. Positive Controls: 4-Br-A23187: 10 mM in DMSO; final concentration 10 μM. Acetylcholine: 10 mM in water, working stock at both 20 μM and 30 μM in assay buffer, final concentration of 10 μM. This is used to check the maximum stimulation of the CHOK1/hM1 cells. 20 μM (2×) acetylcholine is added in the preincubation part of the assay, and the 30 μM (3×) stock is added in the second part. (EC20)Acetylcholine: 10 mM in water, working stock of 9 nM (3×), and final concentration in assay is 3 nM. This is used after the preincubation with test compounds. Addition of the EC20 Acetylcholine to each well with a test compound will ascertain any modulator activity. 24 wells contain 3 nM Acetylcholine alone as a control.
Determining Activity of Putative Compounds:
Screening Plate: Compounds are titrated in 96-well plates (columns 2-11), 100% DMSO, started at a concentration of 15 mM (150× stock concentration), and 3-fold serial dilutions using Genesis Freedom200 System. Four 96-well plates are combined into a 384-well plate using Mosquito Nanolitre Pipetting System by transferring 1 μl of serial diluted compounds to each well, and 1 mM acetylcholine (100× stock concentration) were added as a control. Using Temo, 49 μl assay buffer is added to each well of the 384-well plate right before assay.
In a 96-well Whatman 2 ml Uniplate, 9 nM Acetylcholine (3×) is pipetted into wells corresponding to the screening compounds and into control wells. […]
After 60 min, the cells are washed three times with 100 μL of buffer, leaving 30 μL of buffer in each well. […] A signal test to check background fluorescence and basal fluorescence signal is performed. […]

EC50 [nM] | Compound
29 | O=C(O)c1cc(Cc2ccc(-c3cn[nH]c3)cc2)c2ccccn2c1=O
74 | O=C(O)c1cc(Cc2ccc(-c3ccncc3)cc2)c2ccccn2c1=O
23 | O=C(O)c1cc(Cc2ccc(-c3ccncc3)cn2)c2ccccn2c1=O
75 | O=C(O)c1cc(Cc2ccc(-c3cccnc3)cc2)c2ccccn2c1=O
61 | O=C(O)c1cc(Cc2ccc(-c3ccccn3)cc2)c2ccccn2c1=O
